Values of other authors in US20210290606A1, “METHOD TO PREVENT AND TREAT OSTEOARTHRITIS BY CALCIUM CHANNEL BLOCKERS, ANGIOTENSIN CONVERTING ENZYME INHIBITORS, AND ANGIOTENSIN RECEPTOR BLOCKERS” (priority 2018, published 2021).

Tested on: osteoarthritis
Details: 2016 meta-analysis of 22 clinical trials, 8275 patients, after one year; cited from earlier work

CN1CC[C@]23c4c5ccc(O)c4O[C@H]2C(=O)CC[C@H]3[C@H]1C5 [hydromorphone]
clinical difference between the high potency narcotics and tramadol: no clinically observable difference
